The values below come from ChEMBL document CHEMBL1154934, “Identification of piperazine-bisamide GHSR antagonists for the treatment of obesity” (Bioorg Med Chem Lett, 2010).

The nature of this experiment: Inhibition of P-glycoprotein assessed as efflux ratio.

On to `C[C@H]1CN(C(=O)c2ccc(-c3ccncc3)c(F)c2)CCN1C(=O)c1ccc2cc[nH]c2c1`, for which the Ratio was 14.
